Reference: patent US6403805B1 (Janssen Pharmaceutica N.V., priority 1995, dated 2002)

The chains behind the UniProt entries cited, without tags or fusion partners.
UniProt Q07343, whole entry: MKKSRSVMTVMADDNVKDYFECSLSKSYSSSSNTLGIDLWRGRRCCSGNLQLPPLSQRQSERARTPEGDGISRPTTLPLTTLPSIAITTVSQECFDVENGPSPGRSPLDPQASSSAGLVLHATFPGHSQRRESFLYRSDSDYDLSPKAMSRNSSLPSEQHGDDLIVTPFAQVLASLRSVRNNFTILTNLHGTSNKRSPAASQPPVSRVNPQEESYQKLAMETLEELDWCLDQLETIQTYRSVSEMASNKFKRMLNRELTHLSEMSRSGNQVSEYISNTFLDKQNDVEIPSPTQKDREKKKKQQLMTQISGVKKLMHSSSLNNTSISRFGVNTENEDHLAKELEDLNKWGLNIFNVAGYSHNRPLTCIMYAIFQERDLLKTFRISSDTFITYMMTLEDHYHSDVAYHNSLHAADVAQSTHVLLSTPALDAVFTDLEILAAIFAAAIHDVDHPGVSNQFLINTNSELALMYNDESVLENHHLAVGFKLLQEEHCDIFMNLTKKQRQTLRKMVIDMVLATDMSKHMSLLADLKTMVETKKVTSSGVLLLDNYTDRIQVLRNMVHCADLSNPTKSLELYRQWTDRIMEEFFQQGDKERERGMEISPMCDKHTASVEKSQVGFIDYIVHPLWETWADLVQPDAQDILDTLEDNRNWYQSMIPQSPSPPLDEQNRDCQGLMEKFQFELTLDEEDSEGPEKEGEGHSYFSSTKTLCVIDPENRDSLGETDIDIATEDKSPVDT

What was measured:
[1] = target: recombinant human MNL phosphodiesterase type IV B (Homo sapiens, UniProt Q07343); assay: Inhibition of recombinant human mononuclear lymphocyte (MNL) phosphodiesterase type IV B produced in insect cells with a baculovirus vector; conditions: read-out: IC50 (in M); recombinant human MNL PDE IV B; 0.8 μM 3H-cAMP, pH 8, 37° C.; calculated graphically
Description: Inhibition of recombinant human mononuclear lymphoctye (MNL) phosphodiesterase type IV B produced in insect cells with a baculovirus vector
The alleviating and/or curing effect of the instant compounds on allergic and atopic diseases was assessed by an in vitro assay system to detect an inhibiting effect on the recombinant human MNL phosphodiesterase type IV B.
Seventy-two hours after infection with recombinant baculovirus, the insect cells were harvested and pelleted at 500 g for 5 minutes. The cells were lysed in 10 ml lysis-buffer consisting of 20 mM Tris, 10 mM EGTA, 2 mM Na2EDTA, 1% Triton-X-100, 1 mM Na3VO4, 10 mM NaF, 2 μg/ml of leupeptine, pepstatine and aprotinine, 0.3 μg/ml benzamidine and 100 μg/ml TPCK pH 7.5. After 5 minutes on ice, solubilized cells were centrifuged at 4000 rpm for 15 minutes at 4° C. The resulting supernatant was filtered through a 0.45 μm filter (Millipore) and brought to TBS buffer (50 mM Tris, 150 mM NaCl pH 7.4).
The supernatant containing phosphodiesterase (PDE) type IV B, was subsequently loaded onto a 5 ml anti-FLAG-M2 affinity gel column, previously activated with 5 ml 100 mM glycine pH 3.5 and equilibrated with 20 ml 50 mM Tris, 150 mM NaCl pH 7.4. After washing the column with equilibration buffer, PDE IV was eluted in 1.5 ml fractions containing 37.5 μl 1M Tris pH 8. The fractions were dialyzed overnight against 20 mM Tris, 2 mM Na2EDTA and 400 mM NaCl pH 7.5 and tested for PDE IV activity. Identification was done on SDS PAGE and Western Blot (anti-FLAG-M2). Active fractions were pooled, brought to 10% glycerol and stored at −70° C.
The incubation mixture (pH 8) (200 μl) contained 20 mM Tris, 10 mM magnesium sulphate, 0.8 μM ^3H-cAMP (310 mCi/mmole) and the phosphodiesterase type IV, the amount depending on the enzymatic activity.
When the effect of different compounds on phosphodiesterase activity was tested, the medium without cAMP was incubated with the compound(s) or its carrier (DMSO-1% final concentration) for 5 min. The enzymatic reaction was started by addition of ^3H-cAMP and stopped 10 min later after transferring the microtiter-plate in a waterbath at 100° C. for 5 min. After cooling to room temperature, alkaline phosphatase (0.25 μg/ml) was added and the mixture was incubated at 37° C. for 20 min. 100 μl of the mixture was subsequently applied to a GF-B filter-microtiter-plate (Millipore) filled with 300 μl DEAE-Sephadex-A25 suspension. The plate was washed 3 times with 75 μl 20 mM Tris pH 7.5 and the filtrates were collected for counting in the Packard Top Count scintillation counter.
The inhibiting effect of the present compounds on recombinant human MNL phosphodiesterase PDE IV B was measured at different concentrations of the instant compounds. The IC50 values (expressed in M) were calculated graphically from the thus obtained inhibition values.

[2] = tested on: dextran-induced oedema formation in mouse ear; assay: Dextran-induced oedema formation in mouse ear; type: in vivo, Male Swiss mice; conditions: oral dose of 5 mg/kg in PEG-200, one hour before i.v. dextran T500/pontamine sky-blue; vs background blueing value
Description: Dextran-induced oedema formation in mouse ear Systemic injection of dextran T500 in normal, non-sensitized mice elicits increased vascular permeability, leading to extravasation and oedema of the extremities. When dextran is injected together with a blue dye, blueing of the ears is the most prominent feature of oedematous response. Male Swiss mice weighting 24-26 g were orally pretreated with the test compound dissolved in PEG-200 at different concentrations or solvent. One hour later, the mice were given an intravenous injection with an isotonic saline solution containing 12 mg/ml dextran T500 and 2.6 mg/ml pontamine sky-blue dye, in a volume of 0.1 ml per 10 g body weight. One hour and forty-five minutes later, the animals are sacrificed by ether and their ears removed. Extraction and quantification of the extravasated dye is done as described by Van Wauwe and Goossens (Drug Dev. Res. 1986, 8, 213-218). The extravasation of the dye is characterized by the blueing value which is defined as the concentration of the extracted dye in both ears. The background blueing value was determined once as the mean blueing value obtained by injecting a group of mice with a saline solution containing only dextran T500 and the blue dye. Table 6 lists the percentage inhibition of the extravasation of the dye when compared with the background extravasation of the dye when the test compound was administered at a dose of 5 mg/kg. The test compounds indicated by an asterisk (*) were tested at a dose of 2.5 mg/kg

| SMILES | pIC50 [1] | % inhibition of the extravasation of the dye [2] |
| --- | --- | --- |
| COc1ccc(CCn2cc[nH]c2=O)cc1OC1CCCC1 | 8.17 | 63.7% |
| COc1ccc(C(O)Cn2cc[nH]c2=O)cc1OC1CCCC1 (stereo not shown) | 7.40 | 69.3% |
| COc1ccc(C(C)C(C)n2cc[nH]c2=O)cc1OC1CCCC1 (stereo not shown) | 6.59 | 41.3% |
| COc1ccc(C(C)CCn2cc[nH]c2=O)cc1OC1CCCC1 (stereo not shown) | 6.26 | 10.9% |
| COc1ccc(C(C)(F)Cn2cc[nH]c2=O)cc1OC1CCCC1 (stereo not shown) | 7.23 | 90.4% |
| COc1ccc(C(C)n2cc[nH]c2=O)cc1OC1CCCC1 (stereo not shown) | 6.82 | 35.1% |
| COc1ccc(C(F)Cn2cc[nH]c2=O)cc1OC1CCCC1 (stereo not shown) | 7.77 | 100% |
| COc1ccc(C(C)(C)Cn2cc[nH]c2=O)cc1OC1CCCC1 | 7.28 | 34.0% |

pIC50: −log10 of the molar value.
